Measurements as given in patent US8133683B2, “Methods for detecting biomolecules in a sample” (Taipei Medical University, priority 2009, dated 2012).

Assay: Capturing capacity and rate of MD-Charcoal for FITC-labeled molecules
Conditions: for Remaining fluorescence intensities: 3 μM in 60 μl, Ex485/Em535, Gain 35, means±SD (n=3)

Fluorescein-5-isothiocyanate cadaverine [FITC-cadaverine, reference compound]
Remaining fluorescence intensities (% of No Treatment) (MD-Charcoal treatment 1 min): (0.4%) | Remaining fluorescence intensities (MD-Charcoal treatment 1 min): 1,443 ± 68^1b | Remaining fluorescence intensities (% of No Treatment) (MD-Charcoal treatment 5 min): (0.3%) | Remaining fluorescence intensities (MD-Charcoal treatment 5 min): 1,130 ± 36^1b | Remaining fluorescence intensities (% of No Treatment) (MD-Charcoal treatment 10 min): (0.3%) | Remaining fluorescence intensities (MD-Charcoal treatment 10 min): 1,020 ± 37^1b
